Molecular target: aminopeptidase N (Homo sapiens, UniProt P15144)
Test: Inhibitory effect to aminopeptidase N (L-alanine-7-amido-4-methylcoumarin substrate, MOLT-4 cells, fluorescence)
Format: biochemical
Details: based on fluorescence intensity of the control fraction (Table 13, Test Example 9)

Chains of the proteins cited; added tags and fusions are not shown. Residues count along the entry.
UniProt P15144, 2-967 limits assumed: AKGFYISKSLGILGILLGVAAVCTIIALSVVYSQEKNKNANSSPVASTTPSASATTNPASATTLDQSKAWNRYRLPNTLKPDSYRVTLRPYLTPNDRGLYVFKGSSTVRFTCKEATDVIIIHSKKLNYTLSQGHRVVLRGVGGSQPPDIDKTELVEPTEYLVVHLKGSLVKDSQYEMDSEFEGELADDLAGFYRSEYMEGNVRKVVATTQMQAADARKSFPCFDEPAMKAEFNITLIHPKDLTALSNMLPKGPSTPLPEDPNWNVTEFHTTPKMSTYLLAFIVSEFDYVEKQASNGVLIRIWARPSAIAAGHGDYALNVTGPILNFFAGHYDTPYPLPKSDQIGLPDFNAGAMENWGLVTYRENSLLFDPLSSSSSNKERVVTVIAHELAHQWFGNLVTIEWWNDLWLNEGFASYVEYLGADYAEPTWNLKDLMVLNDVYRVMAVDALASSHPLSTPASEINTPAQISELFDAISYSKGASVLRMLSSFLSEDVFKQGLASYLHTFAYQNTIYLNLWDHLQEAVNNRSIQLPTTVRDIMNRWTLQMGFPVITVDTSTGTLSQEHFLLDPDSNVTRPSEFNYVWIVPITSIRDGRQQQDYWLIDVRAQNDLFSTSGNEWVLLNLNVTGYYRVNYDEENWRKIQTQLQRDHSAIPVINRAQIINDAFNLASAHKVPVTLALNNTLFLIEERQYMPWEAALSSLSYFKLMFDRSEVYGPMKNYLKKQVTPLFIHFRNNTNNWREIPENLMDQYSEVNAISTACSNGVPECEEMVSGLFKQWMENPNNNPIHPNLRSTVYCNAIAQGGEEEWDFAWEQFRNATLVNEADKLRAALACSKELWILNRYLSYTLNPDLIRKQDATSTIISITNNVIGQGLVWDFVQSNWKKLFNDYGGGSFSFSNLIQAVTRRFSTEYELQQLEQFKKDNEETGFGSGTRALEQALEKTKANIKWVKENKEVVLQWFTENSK

Structure (SMILES)	Aminopeptidase N inhibiting activity IC50 [µg/mL]
Cc1ccc([C@@H](C)N2C(=O)c3c(F)c(F)c(F)c(F)c3C2=O)cc1	9.5
C[C@@H](c1ccc([N+](=O)[O-])cc1)N1C(=O)c2c(F)c(F)c(F)c(F)c2C1=O	5.3
C[C@H](c1ccc(N)cc1)N1C(=O)c2c(F)c(F)c(F)c(F)c2C1=O	5
CCCC(=O)Nc1ccc([C@H](C)N2C(=O)c3c(F)c(F)c(F)c(F)c3C2=O)cc1	3.6
CCCC(=O)Nc1ccc([C@@H](C)N2C(=O)c3c(F)c(F)c(F)c(F)c3C2=O)cc1	80
